# Literature values in patent US12377133B2, “Dry pharmaceutical formulations of CNP conjugates” (Ascendis Pharma Growth Disorders A/S, priority 2019, dated 2025).
# Conditions: after intravenous administration
substance,measurement,value
C-type Natriuretic Peptide [CNP],in vivo half-life,2 min
